Laboratory results taken from patent publication US10034922B2, “Peptide having angiogenesis inhibitory activity and composition containing same” (GemVax & KAEL Co., Ltd., priority 2013, dated 2018).
Entries after “also recorded” stand apart in the source; their conditions may differ.

What was measured:
[1] = system: MC38 tumor; test: Apoptosis in tumor sections (TUNEL assay); assay type: in vivo, mouse; conditions: TUNEL staining, PEP1 treated tumor sample
Experimental: For evaluating the apoptosis of tumor, by using formalin-fixed and Paraffin-embedded tumor sections, the DNA fragmentation was analyzed by Tunnel assay. According to the manufacturer's instruction, the tumor section was stained by the apoptosis detection kit (ApopTag Peroxidase In Situ, Millipore). The proliferating cells in tumor were detected by using PCNA (Proliferating cell nuclear antigen). For searching the antigen, the tissue sections were deparaffinized in 10 μM citrate (pH6.0) buffer during 40 minutes, hydrated, and heated. The tissues were stained by anti-mouse PCNA monoclonal antibody (ab29, Abcam). After the second treatment and development of antibody, the tissue sections were contrast stained by H&E staining method. And then, the field was randomly selected from the 6 slides of each treatment groups, and the field was analyzed by Leica Qwin software for quantification.

[2] = system: HSP90; test: HSP90 in tumor lysates (immunoblotting); assay type: in vivo, mouse; conditions: all three PEP1 treated tumor samples
Experimental: (§1) 7 week-old BALB/c athymic mice (Nu/Nu) (10 mice per group; n=20, female, Orient Bio Co. Gyunggido, Korea) were divided into two groups randomly after the subcutaneous injection of murine colon carcinoma MC38 (5×10^5 cells/ml in 200 μl PBS per site). PEP1 (50 μg/kg in 100 μl 0.9% NaCl solution) or PBS were injected into the mice once per 2 days. When the size of tumor reaches 10 mm, the PEP1 and PBS were injected to the inside of tumor. The size of tumor was measured in once per 2 days, and the volume of tumor was calculated following equation; volume (mm3)=((width2×length)/2). All experiments were approved by the Institute for Experimental Animals (College of Medicine, Seoul National University at Seoul, Korea).
(§2) Similar to the PCNA staining method, by using immunohistochemical staining, HSP70 and HSP90 proteins expression in tumor were evaluated. The antibodies to the heat shock proteins (HSP70; sc-7298, HSP90; ab1429) was used as the first antibodies. HSP70 and HSP90 proteins expression by tumors was evaluated by immunoblotting using tumor lysate. After freezing by liquid oxygen, the tumor was crashed by the mortar, and homogenized by extraction buffer (20 mM HEPES, pH7.5, 100 mM NaCl, 0.05% Triton X-100, 1 mM DTT, 0.5 mM sodium orthovanadate, 1 mM EDTA, 0.5 mM PMSF, 10 μg/ml aprotinin, 5 μg/ml leupeptin, 2 μg/ml pepstatin). […]

[3] = system: HSP90; test: HSP90 in tumor sections (immunohistochemical staining); assay type: in vivo, mouse; conditions: MC38 tumor sections, PEP1 50 μg/kg
Experimental: as §1, §2

[4] = system: HSP90; test: HSP90 level in hypoxia circumstance (immunoblotting); assay type: cell-based, human; conditions: PEP1 20 μM, vs mock treated control
Experimental: (§3) In hypoxia circumstance, for verifying the effect of PEP1 to the level of HSP, MCF7 and HeLa cells were treated with 20 μM PEP1, and incubated in the hypoxia circumstance and the normoxia circumstance. By using BBL GasPak (Becton Dickinson) which lows the oxygen to non-detective level in 90 minutes by catalytic reaction, the anoxia circumstance was induced. The incubation time was in a range of 2 to 24 hours. As mentioned above, the cells were collected and immunoblotted by using α-HSP70, α-HSP90, α-HIF-1α, or α-GAPDH antibodies. The α-GAPDH, for the protein quantification, was used for the normalization of the amount of HSP70/90 by the amount of GAPDH.

[5] = system: HSP70; test: Secreted HSP70 level in blood of tumor-bearing mice (ELISA); assay type: in vivo, mouse; conditions: serum of MC38 tumor mice, PEP1 50 μg/kg
Experimental: as §1, with “Korea). VEGF secretion in cancer cells was confirmed by ELISA (Enzyme-linked immunosorbent assay). MCF7 and HeLa cells were incubated in the hypoxia circumstance or the normoxia circumstance after adding PEP1 or vehicle during 24 hours. The amount of VEGF in the cell supernant was confirmed by human VEGF immune analysis kit (R&D Systems, USA) following the instruction of the manufacturer. For analyzing the concentration of HSP70 and HSP90 in blood, the blood was collected from the mouse model having tumor. […]” for “Korea).”

[6] = system: HSP70; test: HSP70 level in hypoxia circumstance (immunoblotting); assay type: cell-based, human; conditions: PEP1 20 μM, vs mock treated control
Experimental: as §3

[7] = system: Human umbilical vein endothelial cell induced by VEGF-A; test: Vascular endothelial cell viability, VEGF-A stimulation; assay type: cell-based; conditions: PEP1 0.05, 0.5, 5 μM, VEGF-A 10 ng/mL, 24 hours
Experimental: The vascular endothelial cells were plated to a 6-well plate (BD Biosciences, Bedford, Mass., USA) of the 1×10^5 cells/well. The cells were synchronized to the G1/G0 phase by the basic EBM-2 media (Lonza) which has no serum and angiogenesis factors, treated by the PEP1 at each concentration (0.05, 0.5, 5 μM) and stimulated by the VEGF-A (10 ng/mL) for 24 hours, in order to observe the cell proliferation inhibition effect.
For detecting the cell proliferation, by using the trypan blue staining solution (Invitrogen, Carlsbad, Calif., USA), the cells were directly counted in the microscope (×100), and the cell viability was analyzed by using viability assay kit (Merck Millipore Inc.) with Muse™ analyzer.

[8] = system: MC38 tumor; test: Histological test of tumor (H&E staining); assay type: in vivo; conditions: PEP1 treated mouse
Experimental: FIGS. 22 to 24 represent the results of histological test of the PEP1 administered mouse tumor. The tumor cells collected from the mouse model having tumor treated by PEP1 or vehicle were prepared for immunohistochemistry. In the experiment of FIG. 22, the paraffin fixed sections were stained by H&E staining, and observed by a microscope. In the experiment of FIG. 23, the apoptosis was analyzed by TUNEL assay with the sections. The experiment of the FIG. 24, the proliferating cells were analyzed by immunohistochemistry with PCNA (proliferating cell nuclear antigen) antibodies. The 10 fields were selected randomly from 6 slides of each treatment group, for the quantification, were analyzed by Leica Qwin software.
For evaluating the apoptosis of tumor, by using formalin-fixed and Paraffin-embedded tumor sections, the DNA fragmentation was analyzed by Tunnel assay. According to the manufacturer's instruction, the tumor section was stained by the apoptosis detection kit (ApopTag Peroxidase In Situ, Millipore). The proliferating cells in tumor were detected by using PCNA (Proliferating cell nuclear antigen). […] And then, the field was randomly selected from the 6 slides of each treatment groups, and the field was analyzed by Leica Qwin software for quantification.

## CC[C@H](C)[C@H](NC(=O)[C@H](Cc1ccccc1)NC(=O)[C@H](CCCNC(=N)N)NC(=O)[C@H](CC(C)C)NC(=O)[C@H](CCCNC(=N)N)NC(=O)[C@H](CO)NC(=O)[C@@H](NC(=O)[C@H](CC(C)C)NC(=O)[C@H](CC(C)C)NC(=O)[C@H](C)NC(=O)[C@@H]1CCCN1C(=O)[C@H](CCCNC(=N)N)NC(=O)[C@H](C)NC(=O)[C@@H](N)CCC(=O)O)[C@@H](C)O)C(=O)N1CCC[C@H]1C(=O)N[C@@H](CCCCN)C(=O)O [PEP1, EARPALLTSRLRFIPK]
[1]
  cell apoptosis in tumor vs control group: significant high level
[2]
  HSP90 protein level in tumor: decreases; also recorded: scarcely found
[3]
  HSP90 staining pattern vs PBS treated control: weaker staining pattern
[3]; Leica Qwin quantification
  HSP90 positive stained part vs control: very small
[4]; HeLa cells
  expression of HSP90 over time: significantly decreased
[4]; MCF7 cells
  expression of HSP90 over time: significantly decreased
[5]
  secreted HSP70 level in blood vs control group: lower
[6]; HeLa cells
  expression of HSP70 over time: significantly decreased
[6]; MCF7 cells
  expression of HSP70 over time: significantly decreased
[7]
  cell survival rate: did not affect
[8]
  cavities in tumor tissue section vs control group: more cavities
  vascularization in the tumor: less vascularization
